Like-named read-outs stand apart in the source and are kept apart here.
Legend:
[1] = target: CXCR4 (Jurkat cells expressing CXCR4) (Homo sapiens, UniProt P61073); test: Chemokine (CXCL12-AF647) binding inhibition assay, flow cytometry; conditions: CXCL12-AF647 25 ng/mL
[2] = target: CXCR4 (CXCR-4 transfected U87 cell line, U87.CXCR4) (Homo sapiens, UniProt P61073); test: Intracellular CXCL-12-induced calcium mobilization assay (FLIPR), inhibition of Ca2+ signalling; type: cell-based; conditions: U87.CD4+.CXCR4+ cells, CXCL-12 25-50 ng/mL
[3] = average of the two determinations, read-out: Inhibition of CXCL12 Binding, AVERAGE IC50
[4] = first determination, read-out: Inhibition of CXCL12 Binding, IC50
[5] = second determination, read-out: Inhibition of CXCL12 Binding, IC50
[6] = average of runs 1-4, read-out: Inhibition of Ca2+ Signalling, AVERAGE IC50
[7] = experiment 1, read-out: Inhibition of Ca2+ Signalling, IC50, run 1
[8] = experiment 2, read-out: Inhibition of Ca2+ Signalling, IC50, run 2
[9] = experiment 3, read-out: Inhibition of Ca2+ Signalling, IC50, run 3
[10] = experiment 4, read-out: Inhibition of Ca2+ Signalling, IC50, run 4

By UniProt entry, the sequences of proteins in these tests, tags left out.
UniProt P61073, whole entry: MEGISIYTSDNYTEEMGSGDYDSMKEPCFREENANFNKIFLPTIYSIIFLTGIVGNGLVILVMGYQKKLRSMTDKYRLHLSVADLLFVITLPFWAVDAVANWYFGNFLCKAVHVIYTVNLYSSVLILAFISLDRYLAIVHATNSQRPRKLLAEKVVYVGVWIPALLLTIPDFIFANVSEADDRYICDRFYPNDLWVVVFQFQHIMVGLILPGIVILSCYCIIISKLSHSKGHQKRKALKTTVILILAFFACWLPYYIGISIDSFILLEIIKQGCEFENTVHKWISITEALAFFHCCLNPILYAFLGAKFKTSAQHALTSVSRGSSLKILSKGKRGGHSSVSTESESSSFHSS

Row | IC50 [1, 3] [nM] | IC50 [1, 4] [nM] | IC50 [1, 5] [nM] | IC50 [2, 6] [nM] | IC50 [2, 7] [nM] | IC50 [2, 8] [nM] | IC50 [2, 9] [nM] | IC50 [2, 10] [nM] | SMILES
1 | 10.3 | 9.5 | 11.1 | 21.3 | 27.2 | 14.3 | 14.9 | 28.9 | O=C(O)C(F)(F)F.[2H]c1c([2H])c([2H])c2[nH]c(CN(CCCCN)[C@H]3CCCc4cccnc43)nc2c1[2H] [Compound I-36]
2 | 3.1 | 3.2 | 3 | 13.1 | 19.9 | 11 | 7.87 | 13.9 | NCCCCN(Cc1nc2ccccc2[nH]1)[C@H]1CCCc2cccnc21 [Compound X4P-001, mavorixafor]

Source: US20220017487A1, “DEUTERATED COMPOUNDS AND USES THEREOF” (X4 Pharmaceuticals, Inc., priority 2020, published 2022)
